Apparent affinities of Ab-14 variants for a coronavirus HR2 peptide

Reference: Engelhart et al. 2022, doi:10.1038/s41597-022-01779-4. File: FLAb, binding data.

Target peptide (SARS-CoV-2 spike, HR2 region): PDVDLGDISGINAS

Parent scFv Ab-14: VH joined to VL by a (GGGGS)3 linker. Changes lie in the heavy chain CDRs alone.
VH: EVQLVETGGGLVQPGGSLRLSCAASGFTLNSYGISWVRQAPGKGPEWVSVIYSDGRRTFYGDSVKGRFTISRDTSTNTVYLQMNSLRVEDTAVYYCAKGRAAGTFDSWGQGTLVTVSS
VL: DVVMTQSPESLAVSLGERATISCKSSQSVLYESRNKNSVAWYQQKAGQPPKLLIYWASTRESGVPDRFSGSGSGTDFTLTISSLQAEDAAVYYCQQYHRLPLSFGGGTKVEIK

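The parent was found by panning a naive human phage display library on the peptide. Variants in AAYL49 differ from the parent at up to three CDR positions; double and triple changes were sampled at random. AlphaSeq pools MATa yeast showing the antibodies with MATalpha yeast showing the peptide. Pairs that bind mate more often; barcode pairs of the diploids are counted by sequencing. Scores were corrected for input abundance and mapped to Kd with protein pairs of known affinity run in the same pool. The assay was run in three technical replicates.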

Substitutions are numbered in sequence along the VH above, starting at 1 (not Kabat). The read-out is the apparent dissociation constant on a log10 scale (nM): the lower, the stronger. Averages over replicates are reported, and they cover detected replicates only. Where no diploid with the target was found in any replicate, the entry reads "not detected": below detection, most likely a poor binder, though not proof of it.

log10 Kd (nM), mean | seen in | changes
not detected | 0 of 3 | S31Y/Y32N/R56L
not detected | 0 of 3 | S63R/A102H/T104E
6.17 | 1 of 3 | F27K/Y52Q/F105V
not detected | 0 of 3 | D54H/Y60R/A102I
not detected | 0 of 3 | S35W/G61R
not detected | 0 of 3 | G26R/G103E/T104N
not detected | 0 of 3 | N30I/R56S/G99S
4.86 | 1 of 3 | I34N/V50K/T58D
1.16 | 3 of 3 | R56M/K65Q
4.64 | 1 of 3 | T58S/A102D/G103Q
4.34 | 2 of 3 | Y52V/G99E/S107M
1.14 | 3 of 3 | G26E/R100Q/A101N
4.59 | 2 of 3 | G26N/N30T/G99A
3.95 | 3 of 3 | F27G/S31T/V50T
5.46 | 1 of 3 | N30W/V64R/D106C
not detected | 0 of 3 | Y32N/T58Y/T104E
3.24 | 2 of 3 | L29M/V50I
not detected | 0 of 3 | S35F/G61Y/R100T
not detected | 0 of 3 | S31V/T58D/K65Y
3.98 | 2 of 3 | L29S/S63K/D106A
2.44 | 3 of 3 | S31A/D62P/S107L
5.20 | 1 of 3 | G26E/R57Y/V64P
3.35 | 1 of 3 | S35I/D54Q/D62M
4.57 | 2 of 3 | F27R/S53P/V64K
not detected | 0 of 3 | S53P/D54R/D62G
3.91 | 1 of 3 | I34F/V50R/R100N
not detected | 0 of 3 | S31D/R57W/K65E
5.81 | 1 of 3 | G26Y/Y32E/G99H
5.02 | 2 of 3 | G26H/L29P/R57C
3.27 | 1 of 3 | I34C/R56Y/G103E
3.16 | 3 of 3 | F59V/D62F/G99D
not detected | 0 of 3 | F27V/Y52V/K65L
2.61 | 1 of 3 | G33F/S53M/S63K
not detected | 0 of 3 | G33I/R56N
5.61 | 1 of 3 | F27P/G33W/R56W
5.44 | 3 of 3 | N30P/R57F/D106A
4.09 | 2 of 3 | R56N/G99D
not detected | 0 of 3 | G26H/G33C/Y60Q
not detected | 0 of 3 | V64L/G99T/G103W
4.39 | 1 of 3 | G33L/S35N/G103W
4.30 | 3 of 3 | G33L/S35E/R100A
not detected | 0 of 3 | D62G/K65V/F105I
2.62 | 3 of 3 | S53W/D62Q
not detected | 0 of 3 | L29I/R57G/G61K
5.33 | 1 of 3 | T28P/A101H/F105I
4.00 | 1 of 3 | S63Y/V64P/G103F
not detected | 0 of 3 | R56E/R57I/V64R
5.38 | 1 of 3 | G26N/D62R
not detected | 0 of 3 | V50P/D62L/G99M
not detected | 0 of 3 | I34G/A101W/F105P
2.64 | 3 of 3 | F27S/T28A/S31M
not detected | 0 of 3 | V50F/F59C/R100N
3.49 | 1 of 3 | S53F/R56Y
3.98 | 1 of 3 | G26C/R56K/Y60P
not detected | 0 of 3 | V50L/I51H
-0.04 | 3 of 3 | T28W/F59A/A101N
not detected | 0 of 3 | T28Q/R56V/T58K
5.21 | 2 of 3 | D54E/T58R/F105P
not detected | 0 of 3 | S31C/S35N/V50D
0.92 | 3 of 3 | T28Q/N30L/S53A
0.13 | 3 of 3 | S31E/R56Y
4.74 | 2 of 3 | L29Q/S35L/S107A
not detected | 0 of 3 | S31N/D54V/K65P
2.43 | 3 of 3 | R57K/D62H/D106S
not detected | 0 of 3 | G26C/R57F/R100A
3.82 | 1 of 3 | V50N/K65A/S107Q
4.51 | 1 of 3 | G26T/S35I/S53D
not detected | 0 of 3 | V64P/A101I/D106M
4.10 | 1 of 3 | F59A/Y60P/G61Y
not detected | 0 of 3 | G26N/Y60H/V64A
not detected | 0 of 3 | Y52H/A102R/F105M
not detected | 0 of 3 | L29R/T104I/F105K

11 of these entries, quoted again:

changes,"log10 Kd (nM), mean",seen in
D54E/T58R/F105P,5.21,2 of 3
F27K/Y52Q/F105V,6.17,1 of 3
G26H/L29P/R57C,5.02,2 of 3
V50F/F59C/R100N,not detected,0 of 3
G26Y/Y32E/G99H,5.81,1 of 3
G26R/G103E/T104N,not detected,0 of 3
S35F/G61Y/R100T,not detected,0 of 3
D54H/Y60R/A102I,not detected,0 of 3
L29R/T104I/F105K,not detected,0 of 3
F27P/G33W/R56W,5.61,1 of 3
G33F/S53M/S63K,2.61,1 of 3

Three control strains display no target. For library AAYL49, 15% of the pairings with them gave a signal, with a median of 4.06 and one signal in twenty below 2.83, so weak values seen in few replicates may be background.